Chains of the proteins cited; added tags and fusions are not shown. Lines headed by an entry give the natural chain unless they say otherwise; changes in a name come on top.
UniProt P31645, whole entry: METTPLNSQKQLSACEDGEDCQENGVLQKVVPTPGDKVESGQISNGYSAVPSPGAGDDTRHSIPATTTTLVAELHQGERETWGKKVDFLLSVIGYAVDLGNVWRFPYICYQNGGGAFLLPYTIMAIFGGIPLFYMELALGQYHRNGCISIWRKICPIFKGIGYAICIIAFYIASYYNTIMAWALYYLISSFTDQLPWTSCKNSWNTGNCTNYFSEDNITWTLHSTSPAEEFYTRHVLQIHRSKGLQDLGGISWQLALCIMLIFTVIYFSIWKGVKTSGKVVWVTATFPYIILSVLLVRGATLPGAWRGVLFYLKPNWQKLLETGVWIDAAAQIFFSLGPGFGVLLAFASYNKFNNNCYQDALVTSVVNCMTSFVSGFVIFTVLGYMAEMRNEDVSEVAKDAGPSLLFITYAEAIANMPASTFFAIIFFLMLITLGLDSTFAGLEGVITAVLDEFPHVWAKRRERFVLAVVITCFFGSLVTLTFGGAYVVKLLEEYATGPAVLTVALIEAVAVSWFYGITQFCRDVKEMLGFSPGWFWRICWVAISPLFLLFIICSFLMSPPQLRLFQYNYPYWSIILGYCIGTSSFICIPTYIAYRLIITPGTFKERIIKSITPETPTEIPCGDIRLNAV
UniProt Q08499: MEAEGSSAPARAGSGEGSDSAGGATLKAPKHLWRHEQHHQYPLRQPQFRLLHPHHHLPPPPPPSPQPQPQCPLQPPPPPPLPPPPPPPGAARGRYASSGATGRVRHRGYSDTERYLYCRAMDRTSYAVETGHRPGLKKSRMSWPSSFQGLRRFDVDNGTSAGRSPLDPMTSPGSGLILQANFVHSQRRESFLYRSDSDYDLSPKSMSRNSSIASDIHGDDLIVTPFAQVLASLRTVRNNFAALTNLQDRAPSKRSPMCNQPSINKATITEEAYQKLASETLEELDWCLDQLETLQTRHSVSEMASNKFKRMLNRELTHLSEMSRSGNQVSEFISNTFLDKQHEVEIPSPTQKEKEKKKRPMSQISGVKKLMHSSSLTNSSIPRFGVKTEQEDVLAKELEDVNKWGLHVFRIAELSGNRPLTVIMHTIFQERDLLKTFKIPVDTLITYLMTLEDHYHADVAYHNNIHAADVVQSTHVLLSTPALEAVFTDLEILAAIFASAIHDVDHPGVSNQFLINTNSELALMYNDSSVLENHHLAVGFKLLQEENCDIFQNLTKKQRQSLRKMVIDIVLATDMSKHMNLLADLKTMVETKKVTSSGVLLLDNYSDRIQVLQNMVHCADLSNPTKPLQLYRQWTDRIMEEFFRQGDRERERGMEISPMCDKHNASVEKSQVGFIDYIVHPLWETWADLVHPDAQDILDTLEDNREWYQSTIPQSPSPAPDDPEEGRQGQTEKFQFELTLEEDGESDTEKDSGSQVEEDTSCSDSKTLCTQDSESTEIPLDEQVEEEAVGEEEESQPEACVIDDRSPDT

According to ChEMBL document CHEMBL1152805, “Dual inhibitors of phosphodiesterase-4 and serotonin reuptake” (J Med Chem, 2009):

Experiments:
[1] = biological target: Sodium-dependent serotonin transporter (Homo sapiens, UniProt P31645); experiment: biochemical; assay type: cell-based, HEK293
[2] = biological target: 3',5'-cyclic-AMP phosphodiesterase 4D (Homo sapiens, UniProt Q08499); experiment: Inhibition of human recombinant PDE4D3

Structure (SMILES) | Ki [1] [nM] | Ki [2] [nM]
COc1ccc(F)c(CCCC2CCC(CCNCCCCCN3N=C(c4ccc(OC)c(OC)c4)[C@H]4CC=CC[C@H]4C3=O)O2)c1 (mixture of isomers) | 194 | –
COc1ccc(C2=NN(CCCCCBr)C(=O)[C@@H]3CC=CC[C@H]23)cc1OC (racemic) | – | 2.3
